Measurements from patent US20260306460A1, “COMPOSITION FOR REMOVING AND INHIBITING SENESCENT CELLS, AND USES THEREOF” (LIFECEUTIX CO., LTD., priority 2023, published 2026).

Columns and labels:
[1] = system: HMGN1 secreted from senescent A549 cells; experiment: HMGN1 secretion (ELISA) from senescent A549 cells, Example 18, Table 14; type: cell-based, human; conditions: doxorubicin-senescent A549, without test compound (DMSO) = 100%; 30 μM (LX-5211, LX-5433, LX-6530, LX-6800, LX-9105, LX-9118, LX-9131, LX-9136, LX-9302, LX-9321, LX-9565, LX-9602 at 90 μM; LX-9336 at 2.4 mM)
[2] = system: HMGN1 secreted from senescent cells; experiment: HMGN1 secretion (ELISA) from doxorubicin-induced senescent cells, Example 17; type: cell-based, human; conditions: senescent untreated = 100%; 30 μM; 90 μM for LX-5211, 5433, 6530, 9105, 9118, 9321, 9602; 2.4 mM for LX-9336

For Mirvetuximab [LX-7622], the HMGN1 [1] was 281%.

B1: Evolocumab (antibody, chains of the INN, looked up, V domains shown)
VH: EVQLVQSGAEVKKPGASVKVSCKASGYTLTSYGISWVRQAPGQGLEWMGWVSFYNGNTNYAQKLQGRGTMTTDPSTSTAYMELRSLRSDDTAVYYCARGYGMDVWGQGTTVTVSS
VL: ESALTQPASVSGSPGQSITISCTGTSSDVGGYNSVSWYQQHPGKAPKLMIYEVSNRPSGVSNRFSGSKSGNTASLTISGLQAEDEADYYCNSYTSTSMVFGGGTKLTVL
notes: CAS 1256937-27-5
With B1 the HMGN1 [2] was 281%.
